# A selection: hits, their analogues and other compounds. The true share with any hit is near 0.46%.
# HCMV NEC inh – inhibitors of HCMV UL50-UL53 nuclear egress complex interaction. 0.15% of 190,000 active. AID 1918969. HTRF UL50-UL53 interaction, normalized percent inhibition. inhibition, % (test concentration not listed); in the data active = inhibition above about 27%, passing the limit was not always enough
# GIV Gai3 FP – blocks GIV peptide binding to rat Galpha-i3. P08753. Galpha-i3/FITC-GIV peptide fluorescence polarization, 90 min; stronger effect = lower value; scaled: aluminum fluoride 0%, vehicle 100%. percent of control (FP), % (test concentration not listed). 0.42% of 210,000 active. AID 1224905;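 active = replicate mean at 85% of control or lower, very high polarization wells dropped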;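 note: wells of about 15 µL received 100 nL stock; the first replicate is given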
# Numbers stand for hits; – = inactive; · = no result given.
SMILES,HCMV NEC inh,GIV Gai3 FP
CN1CCN(CC(O)Cn2c3ccc(Cl)cc3c3cc(Cl)ccc32)CC1 (stereo unspecified),·,–
CCOC(=O)/C(C#N)=C/c1ccc(N2CCCCC2)o1,–,-74
N#C/C(=C\c1ccc(N2CCCCC2)o1)C(N)=O,–,–
CSc1nc(Nc2cccc(C)c2)c(C#N)c(-c2ccccc2)n1,48,–
COc1ccc(Nc2nc(SC)nc(-c3ccccc3)c2C#N)cc1OC,–,–
O=c1c2cc3ccccc3oc-2nn1-c1ccc(Cl)cc1,·,–
O=c1[nH]c2c(s1)C=Nc1cc3ccccc3cc1N2,–,59
COc1ccc(N(Cc2nc3nc(C)c(Cl)c(C)n3n2)C(=O)C(C)C)cc1,–,–
COCCCN1C(=O)/C(=C\c2c(N3CC(C)OC(C)C3)nc3c(C)cccn3c2=O)SC1=S (stereo unspecified),·,–
Cc1cccn2c(=O)c(/C=C3\SC(=S)N(CCCC(=O)O)C3=O)c(N3CCCCC3)nc12,·,40
Cc1cccn2c(=O)c(/C=C3\SC(=S)N(C)C3=O)c(N3CCCC3)nc12,·,-36
Cc1cccn2c(=O)c(/C=C3\SC(=S)N(CCCC(=O)O)C3=O)c(NCCc3ccccc3)nc12,·,–
NC(=O)CSc1ccc2nnc(-c3ccccc3)n2n1,–,·
O=C(CSc1ccc2nnc(-c3ccccc3)n2n1)NC1CCCC1,34,–
Clc1ccc(OCc2noc(-c3ccsc3)n2)cc1,–,–
O=c1oc2cc(O)ccc2cc1-c1nc(-c2ccc3ccccc3c2)cs1,·,-29
Cc1ccc(-c2csc(-c3cc4ccccc4oc3=O)n2)cc1C,·,–
O=c1oc2ccccc2cc1-c1nc(-c2cccs2)cs1,·,11
O=c1oc2ccc3ccccc3c2cc1-c1nc(-c2cccs2)cs1,·,–
O=c1oc2cc(O)ccc2cc1-c1nnc(NC2CCCCC2)s1,·,-31
COc1cccc2cc(-c3nnc(NC4CCCCC4)s3)c(=O)oc12,·,–
Cc1ccc(Cl)cc1NC(=O)CC1SC(N)=NC1=O (stereo unspecified),–,–
O=[N+]([O-])c1cccc(S(=O)(=O)Nc2ccc3oc4c(c3c2)CCCC4)c1,·,–
CCOc1ccc(NC(=O)CN2C(=O)C=C(CC(=O)OC)Nc3ccccc32)cc1,–,–
CNCc1c(C)nn(C2CCS(=O)(=O)C2)c1C (stereo unspecified),–,·
SMILES,HCMV NEC inh,GIV Gai3 FP
COc1c(C)cnc2c1c(=O)n(CC(=O)N1CCC(Cc3ccccc3)CC1)c(=O)n2C,–,–
NNC(=O)COc1c(Br)cc(Br)c2cccnc12,–,·
Nc1c(Br)cc(Br)c2cccnc12,58,–
CCc1nc(CN2C(=O)COc3ccc(S(=O)(=O)NC4CC4)cc32)no1,·,–
CN(CC(=O)N1CCc2ccccc21)c1ccccc1,–,·
Cc1ccc(-n2[nH]c(C)c(N=Nc3cccc(-c4cccc(C(=O)O)c4)c3O)c2=O)cc1C,80,·
CC(=O)c1ccc(N=Cc2c(C)[nH]n(-c3ccc(C)c(C)c3)c2=O)cc1,·,–
CCOc1ccc(-c2nc3c(c(SCC(=O)OC)n2)Cc2cccc(OCC)c2O3)cc1,·,–
O=C(O)C(Cc1ccccc1)N1C(=O)/C(=C/C=C/c2ccco2)SC1=S (stereo unspecified),70,–
O=C1S/C(=C\C=C\c2ccco2)C(=O)N1c1ccccc1,–,–
Cc1ccc(S(=O)(=O)CCn2c(=O)oc3cccnc32)cc1,–,–
Nn1c(COc2ccc(F)cc2)n[nH]c1=S,–,·
Cc1ccc2nc(Sc3ccccc3)c(/C=C3\SC(=S)N(C)C3=O)c(=O)n2c1,·,-36
CNc1nc2ccccn2c(=O)c1/C=C1\SC(=S)N(C)C1=O,·,–
CCN(C(=O)CSc1ccccn1)c1c(N)n(Cc2ccccc2)c(=O)[nH]c1=O,–,·
CCOc1ccccc1C1C(C#N)=C(N)SC(N)=C1C#N,–,-78
CCc1ccc(C2C(C#N)=C(N)SC(N)=C2C#N)cc1,–,·
O=C1CC(c2ccccc2)S(=O)(=O)c2ccccc21 (stereo unspecified),–,–
CNC(=O)Nc1ccc2snnc2c1,·,–
O=C(Nc1ccc2snnc2c1)NC1CC1,48,–
Cc1ccc(-c2noc(C3CCCN(S(=O)(=O)c4ccc5c(c4)OCCO5)C3)n2)cc1 (stereo unspecified),–,–
CC1=C(c2ccc(F)cc2)S(=O)(=O)N=C1N1CCCN(C(=O)NC(C)(C)C)CC1,·,–
CSc1nnc2c(n1)OC(c1ccc([N+](=O)[O-])cc1)Nc1ccccc1-2 (stereo unspecified),·,–
CSc1nnc2c(n1)OC1(Nc3ccccc3-2)C(=O)Nc2ccc([N+](=O)[O-])cc21 (stereo unspecified),34,–
CC1CC(C)CN(S(=O)(=O)c2ccc(Sc3ccc(Br)cc3)c(C(=O)NCCN3CCOCC3)c2)C1 (stereo unspecified),·,–
SMILES,HCMV NEC inh,GIV Gai3 FP
O=CN(/C=C1\Sc2ccccc2C1=O)c1cccc2ccccc12,–,-0.2
CCC(=O)N(C)/C=C1\Sc2ccccc2C1=O,–,–
CCOC(=O)c1ccc(N=Cc2ccc3ccccc3c2)cc1,–,·
CC1CCC(NS(=O)(=O)c2ccc(-c3ccno3)s2)CC1 (stereo unspecified),·,–
CC(C)NS(=O)(=O)c1ccc(-c2ccno2)s1,·,31
O=C1CC(C(=O)Nc2ccc(Cl)c(Cl)c2)NC(=NCc2ccco2)N1 (stereo unspecified),–,–
CC1C/C(=C/c2cccn2C)C(=O)/C(=C/c2cccn2C)C1 (stereo unspecified),·,-75
O=C1/C(=C/c2cccs2)CN(Cc2ccccc2)C/C1=C\c1cccs1,–,–
Cn1cccc1/C=C1\CC(c2ccccc2)C/C(=C\c2cccn2C)C1=O (stereo unspecified),–,–
Cn1cccc1/C=C1\CN(Cc2ccccc2)C/C(=C\c2cccn2C)C1=O,–,-88
Cc1cc2nc(-c3ccc(F)cc3)c(-c3ccc(F)cc3)nc2cc1C,·,–
N#C/C(=C\c1ccc(-c2ccc(Cl)c(C(=O)O)c2)o1)c1nc2ccccc2[nH]1,–,-58
N#C/C(=C/c1ccc(-c2ccc(C(=O)O)cc2)o1)c1ccc(Cl)cc1,–,–
Cc1ccc2nc(/C(C#N)=C/c3ccc(-c4cccc(Cl)c4)o3)[nH]c2c1,–,–
N#C/C(=C\c1ccc(-c2ccc(C(=O)O)cc2)o1)c1nc2ccccc2[nH]1,–,-6.1
COc1ccc(NCc2cc(=O)n3c(-c4ccccc4)csc3n2)cc1,–,·
c1ccc(N2CCN(c3ncnc4nc[nH]c34)CC2)nc1,–,–
Cn1nc(COCc2ccccc2)c2c1CCN(S(=O)(=O)c1cc(F)ccc1F)C2,·,–
COc1ccc(C2CC(=O)C3=C(C2)Nc2ccccc2NC3c2cc([N+](=O)[O-])ccc2Cl)cc1 (stereo unspecified),41,–
COc1ccc(C2CC(=O)C3=C(C2)Nc2ccccc2NC3c2ccccc2Br)cc1 (stereo unspecified),–,–
Cc1ccc(NC(=O)c2sc3nc(-c4ccncc4)ccc3c2N)cc1,–,-53
Nc1c(C(=O)Nc2ccc(F)c(F)c2)sc2nc(-c3ccncc3)ccc12,–,–
CCCn1c(SCc2csc(CC(=O)Nc3ccccc3C)n2)n[nH]c1=O,–,·
CC(=O)Nc1ccc(N(C)S(=O)(=O)c2ccc(C)cc2)cc1,–,·
CS(=O)(=O)NCC(c1ccco1)N1CCCCC1 (stereo unspecified),–,·
c1ccc(N=c2[n-][n+](-c3ccccc3)cn2-c2ccccc2)cc1,55,·
O=C1CN(c2ccccc2)C(=Nc2ccccc2)S1,–,–
